From publication PMC5407101 (Pharmacognosy Magazine, 2017)

What was measured:
[1] = test system: UDP-glucuronosyltransferases (UGTs) in rat liver microsomes; details: read-out: reported IC50 value, inhibition of p-NP glucuronidation; RLM; ref Azizi et al. 35; cited from earlier work
[2] = test system: UDP-glucuronosyltransferases (UGTs) in rat liver microsomes; test: Inhibition of 4-MU glucuronidation assay in RLM; format: in vitro ADME; details: ratio of IC50 RKM/RLM

fold more potent inhibition of 4-MU glucuronidation with RLM than with RKM [2]: 1.6 fold
Structure (SMILES): O=C(O)Cc1ccccc1Nc1c(Cl)cccc1Cl [Diclofenac]
pIC50 [1]: 3.39

pIC50: −log10 of the molar value.
